Patent US4594342A, “1,5-benzothiazepine derivative” (priority 1984, dated 1986)
In brackets after ≈: the same amount, converted by molar mass.

Legend:
Rat platelets = test: Inhibitory effects in vitro on collagen-induced platelet aggregation of rat platelets (Experiment 1); type: cell-based
Source text: (§1) (Inhibitory effects in vitro on collagen-induced platelet aggregation of rat or human platelets)
(§2) The bottom layer was further centrifuged to give platelet-poor plasma ("PPP") as the supernatant solution. Platelet counts were adjusted to about 0.8-1×10^6 /mm^3 for rat PRP and about 4×10^5 /mm^3 for human PRP by dilution with PPP.

Human platelets = test: Inhibitory effects in vitro on collagen-induced platelet aggregation of human platelets (Experiment 1); type: cell-based
Source text: as §1, §2

## CC(=O)Oc1ccccc1C(=O)O [Acetylsalicylic acid, reference compound]
Rat platelets; Rattus norvegicus, Platelet, read-out: IC50 (concentration of test compound required to induce 50% inhibition of collagen-induced platelet aggregation)
  IC50: ~45 mg/L (≈ 250 µM)
Rat platelets; rat platelets, in vitro, rat PRP, collagen-induced, 37° C.
  IC50 (concentration of test compound required to induce 50% inhibition of collagen-induced platelet aggregation): about 45 μg/ml
Human platelets; Homo sapiens, Platelet, read-out: IC50 (concentration of test compound required to induce 50% inhibition of collagen-induced platelet aggregation)
  IC50: ~20 mg/L (≈ 111 µM)
Human platelets; human platelets, in vitro, human PRP, collagen-induced, 37° C.
  IC50 (concentration of test compound required to induce 50% inhibition of collagen-induced platelet aggregation): about 20 μg/ml
